Measurements taken from publication PMC7136958, “Targeting the pregnane X receptor using microbial metabolite mimicry” (EMBO Molecular Medicine, 2020).
Several values for one entry are separate records, joined by “and”; a condition that tells them apart may be missing. Equal entries are not always repeated.

Assays:
NF-κB [1] = experiment: TNF-α-induced NF-κB reporter assay in LS174T PXR-KO cells; conditions: for NFkB NanoLuc luminescence, aver: LS174T PXR-KO, EXP3
NF-κB [2] = experiment: TNF-α-induced NF-κB reporter assay in LS180 cells with or without PXR co-transfection
[3] = system: mutant PXR.1 (C285I/C301A); experiment: PXR luciferase reporter assay in HEK293T cells, mutant PXR.1; assay type: cell-based, human; conditions: 10 μM, replicate wells, listed as RIF
[4] = NFkB transfected LS180 cells, 8th pass, EXP1, 10 uM + TNFa 5 ng/ml
[5] = NFkB transfected LS180 cells, 13th pass, EXP2, 10 uM + TNFa 5 ng/ml
[6] = NFkB+PXR transfected LS180 cells, 8th pass, EXP1, 10 uM + TNFa 5 ng/ml
[7] = NFkB+PXR transfected LS180 cells, 13th pass, EXP2, 10 uM + TNFa 5 ng/ml

- NFkB NanoLuc luminescence, aver (NF-κB [1]; 10 μM + TNFα 5 ng/ml): 52239.7
- NFkB NanoLuc luminescence, aver (NF-κB [1]; 10 uM, no TNFα): 265.7
- NF-κB reporter activity (NF-κB [1]; TNF-exposed PXR-KO cells): neither rifampicin nor FKK6 repressed
- NFkB reporter luminescence, aver (NF-κB [2]; [4]): 114193.5
- NFkB reporter, % max (NF-κB [2]; [4]): 116.3%
- NFkB reporter luminescence, aver (NF-κB [2]; NFkB transfected LS180 cells, 8th pass, EXP1, 10 uM, no TNFα): 1111.8
- NFkB reporter luminescence, aver (NF-κB [2]; [5]): 77480.5
- NFkB reporter, % max (NF-κB [2]; [5]): 79.0%
- NFkB reporter luminescence, aver (NF-κB [2]; NFkB transfected LS180 cells, 13th pass, EXP2, 10 uM, no TNFα): 528.5
- NFkB reporter luminescence, aver (NF-κB [2]; [6]): 60512.0
- NFkB reporter, % max (NF-κB [2]; [6]): 69.8%
- NFkB reporter luminescence, aver (NF-κB [2]; NFkB+PXR transfected LS180 cells, 8th pass, EXP1, 10 uM, no TNFα): 1540.5
- NFkB reporter luminescence, aver (NF-κB [2]; [7]): 25990.0
- NFkB reporter, % max (NF-κB [2]; [7]): 46.3%
- NFkB reporter luminescence, aver (NF-κB [2]; NFkB+PXR transfected LS180 cells, 13th pass, EXP2, 10 uM, no TNFα): 557.0
SMILES: CO[C@H]1/C=C/O[C@@]2(C)Oc3c(C)c(O)c4c(O)c(c(/C=N/N5CCN(C)CC5)c(O)c4c3C2=O)NC(=O)/C(C)=C\C=C\[C@H](C)[C@H](O)[C@@H](C)[C@@H](O)[C@@H](C)[C@H](OC(C)=O)[C@@H]1C [Rifampicin, reference compound]
- PXR reporter activity, RLU/B-Gal [3]: 36487.3 RLU/B-Gal and 30301.7 RLU/B-Gal and 31078.1 RLU/B-Gal
